Patent US20100249093A1, “Substituted Heteroarylpiperidine Derivatives As Melanocortin-4 Receptor Modulators” (SANTHERA PHARMACEUTICALS (SCHWEIZ) AG, priority 2007, published 2010)
Where two headings read alike, the source gives them in different places.

Chains of the proteins cited; added tags and fusions are not shown.
UniProt P32245, whole entry: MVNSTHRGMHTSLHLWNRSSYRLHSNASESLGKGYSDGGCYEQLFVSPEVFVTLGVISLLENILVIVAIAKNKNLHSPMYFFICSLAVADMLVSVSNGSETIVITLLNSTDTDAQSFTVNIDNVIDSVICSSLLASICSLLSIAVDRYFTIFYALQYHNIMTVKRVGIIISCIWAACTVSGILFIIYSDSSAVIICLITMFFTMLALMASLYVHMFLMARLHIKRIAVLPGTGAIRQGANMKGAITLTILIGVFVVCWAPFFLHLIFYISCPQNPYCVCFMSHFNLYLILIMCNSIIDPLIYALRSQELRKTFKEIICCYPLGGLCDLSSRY

Biological target: human melanocortin-4 receptor (MC-4R) (Homo sapiens, UniProt P32245)
Assay: Membrane binding assay: competition with fluorescence labeled NDP-alpha-MSH, fluorescence polarization
[1] = read-out: hMC-4R binding assay IC50, HEK293 cell membrane preparations expressing human MC-4R, tested form: HCOOH
[2] = read-out: hMC-4R binding assay IC50, HEK293 cell membrane preparations expressing human MC-4R, tested form: 2 × HCl

Work on `CC[C@H](COc1cccnc1C1CCN(C(=O)[C@@H](Cc2ccc(Cl)cc2Cl)NC(=O)N2CC[C@@H]2CO)CC1)N(C)C` yielded an IC50 (read-out: hMC-4R binding assay IC50, HEK293 cell membrane preparations expressing human MC-4R) of less than 100 nM.
`CC[C@@H](CN1CCCC1)Oc1nc(C)ccc1C1CCN(C(=O)[C@@H](Cc2ccc(Cl)cc2Cl)NC(=O)N2CCCC2)CC1` was tested, and the IC50 (read-out: hMC-4R binding assay IC50, HEK293 cell membrane preparations expressing human MC-4R, tested form: 2 HCOOH) was less than 100 nM.
`CC[C@H](COc1cccnc1C1CCN(C(=O)[C@@H](Cc2ccc(Cl)cc2C)NC(=O)N2CCCC2)CC1)N1CCCC1` was tested, and the IC50 [1] was less than 100 nM.
In the case of `CC[C@H](COc1cccnc1C1CCN(C(=O)[C@@H](Cc2ccc(C)cc2Cl)NC(=O)N2CCCC2)CC1)N1CCCC1`, the IC50 [1] is reported as less than 100 nM.
`CC[C@H](COc1cc(C)cnc1C1CCN(C(=O)[C@@H](Cc2ccc(Cl)cc2F)NC(=O)N2CCCC2)CC1)N(C)C` was tested, and the IC50 [1] was less than 100 nM.
With `CC[C@H](COc1cccnc1C1CCN(C(=O)[C@@H](Cc2ccc(Cl)cc2Cl)NC(=O)N2CCCC2)CC1)N1CCCC1` the IC50 [2] was less than 100 nM.
In the case of `CN1CCC[C@H](Oc2cccnc2C2CCN(C(=O)[C@@H](Cc3ccc(Cl)cc3Cl)NC(=O)N3CC(O)C3)CC2)C1`, the IC50 [1] is reported as less than 100 nM.
For `CC[C@H](COc1cccnc1C1CCN(C(=O)[C@@H](Cc2ccc(Cl)cc2Cl)NC(=O)N(C)CCOC)CC1)N(C)C`, the IC50 [2] was less than 100 nM.
